Antibody variant affinities, Ab-14 light chain, assay B

Data: MIT Lincoln Laboratory AlphaSeq set, Li et al. 2023, doi:10.1038/s41467-023-39022-2, as distributed in FLAb.

Target: peptide PDVDLGDISGINAS, taken from heptad repeat 2 (HR2) of SARS-CoV-2 spike.

Parent scFv Ab-14: VH joined to VL by a 15-residue (Gly4Ser)3 linker. Changes lie in the light chain CDRs alone.
VH: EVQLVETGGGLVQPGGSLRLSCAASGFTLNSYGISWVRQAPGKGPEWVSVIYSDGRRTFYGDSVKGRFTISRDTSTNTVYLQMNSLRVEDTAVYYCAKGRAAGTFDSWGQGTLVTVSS
VL: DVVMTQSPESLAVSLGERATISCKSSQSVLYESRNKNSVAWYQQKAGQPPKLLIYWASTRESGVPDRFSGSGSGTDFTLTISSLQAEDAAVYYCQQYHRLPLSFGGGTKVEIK

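Phage display of a naive human antibody library on the peptide gave the parent. These sequences belong to a second round, designed from the earlier measurements on random variants of the parent. Their group label is 14L_En_Gen (En: ensemble of fine-tuned language models; Gen: genetic algorithm). AlphaSeq pools MATa yeast showing the antibodies with MATalpha yeast showing the peptide. The frequency of each diploid, read from paired DNA barcodes, reflects how well the two displayed proteins bind. Scores were corrected for input abundance and mapped to Kd with protein pairs of known affinity run in the same pool. There are six technical replicates.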

Each variant is given by its three light chain CDRs, as the data file delimits them; those of the parent are KSSQSVLYESRNKNSVA, WASTRES, QQYHRLPLS. Affinities are written as log10 Kd with Kd in nM; a lower number is a better binder. Averages over replicates are reported, and they cover detected replicates only. "n.d." marks a missing value. The strain was present, yet no cells mated with the target were sequenced in that replicate, which points to weak or no binding. As a blank, each scFv also met three strains without target: over all light chain designs, 4% of these pairings were detected, typically at 2.64 and seldom below 1.59. For each scFv, signals with the empty controls are counted beside the result, with their mean in brackets.

CDR-L1 | CDR-L2 | CDR-L3 | log10 Kd, replicates | mean log10 Kd (nM) | signal with controls
HMSMLTLGGMRQRNSVA | QMTTREN | QQYDRLPLA | 0.41 / 0.54 / 0.69 / 0.27 / 0.85 / 0.68 | 0.57 | 0 of 18
TISQLMNMGQFAINSVA | QAEIRNA | QQYDRLPLI | 1.97 / 1.58 / 1.48 / 1.70 / 2.11 / 1.61 | 1.74 | 0 of 18
IVSQLMLWGMHVKNSIA | EAVTRLN | QQYDRLPLF | n.d. / n.d. / n.d. / n.d. / n.d. / n.d. | n.d. | 0 of 18
MISQIYNMGQFAINSVA | QASIRNA | QQYDRLPLI | 2.26 / 2.09 / 1.12 / 1.90 / 1.88 / 1.01 | 1.71 | 0 of 18
MISQIYNMGQFAINSVA | QASLRND | QQYDRLPLT | 1.17 / 2.95 / 1.99 / 1.40 / 1.39 / 3.13 | 2.01 | 0 of 18
IVSQLMLWGYHAKNSIA | EAEQRLN | QQYDRLPLF | n.d. / n.d. / n.d. / n.d. / 1.85 / n.d. | 1.85 | 0 of 18
HISMLTLQGMRHRNSVA | QMTTREN | QQYDRLPLA | 0.67 / 0.65 / 0.65 / 0.74 / 0.75 / 0.94 | 0.73 | 2 of 18 (3.07)
KISQMVRVGSTHSNSIA | EEATRSD | QQYHRLPLA | 0.88 / 0.92 / 1.18 / 0.46 / 0.46 / 0.43 | 0.72 | 2 of 18 (1.69)
HMSALTLMGSRARNSVA | QMTTREN | QQYDRLPLA | 1.79 / 0.74 / 0.97 / 0.40 / 1.18 / 1.02 | 1.02 | 1 of 18 (1.45)
MISQLMNMGQFAINSVA | QAEIRNS | QQYDRLPLI | n.d. / n.d. / n.d. / n.d. / n.d. / n.d. | n.d. | 0 of 18
KVSEFMRGLMGRKDSIA | DNNTRGS | QQYDRLPLS | 1.87 / 2.65 / 1.00 / 2.23 / 1.34 / 1.94 | 1.84 | 1 of 18 (2.03)
MIHESYGLMSVKQSSIA | DNSTREE | QQYDRLPLS | 0.61 / 1.12 / 1.03 / 1.42 / 0.64 / 0.65 | 0.91 | 2 of 18 (3.25)
KVSEFPRGLMSKQDSIA | DNVTRSN | QQYDRLPLS | n.d. / n.d. / n.d. / n.d. / 2.96 / n.d. | 2.96 | 0 of 18
MISQVTGLGQRHRNNVA | QTSTREP | QQYDRLPLI | 1.07 / 0.87 / 0.95 / 1.17 / 0.65 / 0.85 | 0.93 | 1 of 18 (2.81)
TISQMTSLFSQSINNVA | EVSMREP | QQYDRLPLV | 1.35 / 1.11 / 1.41 / 1.21 / 1.32 / 1.32 | 1.29 | 0 of 18
KISQMVRVGSTASNSIA | EEVTRAK | QQYHRLPLS | 1.05 / 0.35 / 0.18 / 0.54 / 0.53 / 0.59 | 0.54 | 1 of 18 (2.99)
KVSEFMRGLMSRKDSIA | DNETRSN | QQYDRLPLS | 1.66 / 1.76 / 1.21 / 1.42 / 1.79 / 2.05 | 1.65 | 1 of 18 (2.48)
KISMMINMTFEQSNNVA | EMVTREK | QQYNRLPLS | n.d. / n.d. / 2.17 / n.d. / n.d. / 2.77 | 2.47 | 0 of 18
MISQVMNTLTRNGNNVA | DLAERED | QQYFRLPLS | 1.80 / 1.03 / 1.06 / 0.51 / 3.37 / 0.56 | 1.39 | 0 of 18
MVSQLMVWGLHAKNSIA | EGQTRLN | QQYDRLPLF | 0.97 / 0.89 / 1.36 / 1.92 / 1.56 / 1.54 | 1.37 | 1 of 18 (2.87)
KLGMTLNQLMHKKNNVA | DLVNRET | QQYHRLPLS | n.d. / 1.61 / 1.62 / 1.78 / 1.65 / 2.61 | 1.86 | 0 of 18
HMSFLTLQGQRHRNAVA | QMTTREN | QQYDRLPLS | 2.31 / 2.40 / 2.85 / 2.05 / 2.42 / 3.04 | 2.51 | 1 of 18 (2.85)
HMSMLTMMGMRQRNSVA | QMTMREN | QQYDRLPLA | 0.50 / 0.16 / 0.71 / 0.11 / 0.35 / 0.53 | 0.39 | 1 of 18 (1.15)
IVSQLMLWGYHAKNSIA | EAQTRIN | QQYERLPLF | n.d. / n.d. / n.d. / n.d. / n.d. / n.d. | n.d. | 0 of 18
HMSMLTLQGMRHTNSVA | QMTTRVN | QQYDRLPLV | 0.87 / 0.85 / 1.09 / 1.14 / 0.90 / 0.93 | 0.96 | 0 of 18
MMSQVTGMELRQQNNVA | QTTTREE | QQYDRLPLI | 3.08 / 0.97 / 1.78 / 1.10 / 1.34 / 1.60 | 1.65 | 0 of 18
HLSHMTGVESVKHNSVA | ENSTRAN | QQYDRLPLA | n.d. / n.d. / n.d. / 2.15 / n.d. / n.d. | 2.15 | 0 of 18
MMSQVTGQGQRHRNNVA | QTTTREP | QQYDRLPLV | 1.20 / 1.95 / 1.15 / 0.51 / -0.10 / 1.39 | 1.02 | 0 of 18
KLTSITGLEKVKGNNVA | EMETREE | QQYNRLPLS | 0.31 / 0.07 / 0.21 / 0.26 / 0.29 / 0.34 | 0.25 | 1 of 18 (2.79)
MMSQVTMSGMRHRNNVA | QTSTREN | QQYDRLPLI | 0.76 / 1.01 / 1.11 / 1.08 / 1.07 / 1.13 | 1.03 | 2 of 18 (3.64)
TISNVMNTLTRLGNNVA | DLAERED | QQYFRLPLS | 0.66 / 0.63 / 1.06 / 0.37 / 0.65 / 1.10 | 0.74 | 0 of 18
TISQLYNMGQFAINSVA | QASIRNA | QQYDRLPLI | 0.79 / 0.89 / 0.57 / 0.79 / 0.47 / 1.35 | 0.81 | 1 of 18 (2.50)
KIGATLNQMMHKKNNVA | DLVTREN | QQYHRLPLS | 0.56 / 0.77 / 0.78 / -0.06 / 0.54 / 0.69 | 0.54 | 0 of 18
KIGMTLNQLMHQKQNVA | DLVTREN | QQYHRLPLS | 0.42 / -0.11 / 0.18 / 0.00 / 0.10 / 0.48 | 0.18 | 1 of 18 (1.80)
MLSQMWAIGQKVSNSVA | QASMRFN | QQYDRLPLI | 0.83 / 1.12 / 2.47 / 1.23 / 0.84 / 2.47 | 1.49 | 0 of 18
HMSMLTLGGMRHMNSVA | QMTTREN | QQYDRLPLI | 1.29 / 0.96 / 1.48 / 1.90 / 0.60 / 1.56 | 1.30 | 0 of 18
KVSEFMKGLSMRKDSIA | DNTTRNS | QQYDRLPLS | n.d. / 1.88 / n.d. / 1.24 / n.d. / 1.77 | 1.63 | 2 of 18 (1.72)
HITYGMMVHGRHSSSIA | QAETRAK | QQYDRLPLM | 1.72 / 1.42 / 1.33 / 1.39 / 1.66 / 1.27 | 1.46 | 3 of 18 (2.93)
MVNGIMDHLSKHTNNVA | ETTTREE | QQYDRLPLV | 0.25 / 0.37 / 0.41 / 0.46 / 0.27 / 0.26 | 0.34 | 0 of 18
KLTNVTGTEKVHGNNVA | EMETRER | QQYNRLPLS | 0.72 / 1.24 / 0.80 / 0.48 / 0.89 / 0.93 | 0.84 | 0 of 18
MMSQVTGLGQRHRNNVA | QTSMREN | QQYDRLPLI | 1.18 / 1.71 / 1.67 / 1.52 / 1.60 / 1.51 | 1.53 | 0 of 18

In the paper, a design with two or fewer of six values counts as a poor binder. Values of this round are not directly comparable with the first-round values of the same sequences.